System: collagen 1 alpha-2 (COL1A2)
Experiment: Collagen 1 alpha-2 (COL1A2) mRNA expression in human dermal fibroblasts, quantitative PCR
Assay type: cell-based
Details: HDFs, 1 μg/ml peptide, 24 hours, vs PBS control, normalized to 18S rRNA
Experimental: FIG. 4: Collagen 1 alpha-2 (COL1A2) expression in human dermal fibroblasts (HDFs). HDFs were incubated with 1 μg/ml of the respective tetrapeptide (SEQ ID NO:1-SEQ ID NO:4 and SEQ ID NO:11) or with a combination of all four tetrapeptides (SEQ ID NO:1,2,3,11). Controls received PBS. Cells were harvested after 24 hours incubation and RNA was isolated. Expression of FN1 was determined by quantitative PCR. 18s rRNA served as house keeping gene for normalization. Given are means of three independent experiments. […]
For isolation of total RNA RNeasy Total RNA Kits (Qiagen, Hilden; Germany) were used according to the manufacturer's guidelines. The RNA concentration was determined via photometric measurement at 260/280 (Biophotometer, Eppendorf, Hamburg, Germany).
Aliquots of total RNA (100 ng) were applied for cDNA-Synthesis using Superscript™ III First-Strand synthesis system for the reverse transcription step with random […] (Invitrogen, Karlsruhe, Germany). […] Three independent experiments were performed with 3 determinations each and the mean value of these was calculated. […] Each sample was analyzed in double employing the universal protocol over 46 cycles. […]

For GAGP [SEQ ID NO:11, tetrapeptide GAGP], the COL1A2 expression was “even more pronounced”.

Source: patent US20100311668A1, “PERSONAL CARE AND COSMETIC COMPOSITION CONTAINING TETRAPEPTIDES WITH THE MOTIFS GX1X2G, PX1X2P, OR PX1X2K” (EVONIK GOLDSCHMIDT GMBH, priority 2007, published 2010)
